Compound activity deposited in PubChem by Broad Institute.
In the library only some 1.8% were active in any assay of this set; here they are far more common.
RAD52 inh: RAD52 (human) annealing inhibition; P43351; recombinant RAD52 DNA annealing, FRET fluorescence; inhibition, % at 18.7 µM; 360,000 tested, 0.46% active;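 active = every replicate showing at least 50% inhibition; inconclusive = mean inhibition at least 50% but not in every replicate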
E-sel inducer: E-selectin induction on HUVECs | P16581 | HUVEC E-selectin immunofluorescence imaging; normalized: neutral wells 0, TNF-alpha wells 100 | activation, % at 7.58 µM | 260,000 tested, 0.37% active;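 active = mean E-selectin-positive cell signal at least 10% of the positive control, reached in at least 60% of replicates, without over 20% cell loss; inconclusive = no rule given, readout overlaps actives, possibly toxicity-flagged; inactive = the rest, including those meeting only one limit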
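Test system: HUVEC; input: 3,000 HUVEC/well; measured by: immunofluorescence imaging; read-out: % PE-positive cells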
RAD54 inh: blocks human RAD54 Holliday junction branch migration. Q92698. FAM/BHQ fluorescence. inhibition, % at 10.4 µM. 360,000 tested, 0.14% active;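 active = mean normalized replicate activity at least 40 and at least half of replicates scoring 40 or more; inconclusive = only one of the two criteria met; inactive = mean below 40 and under half of replicates reaching 40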;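 also: inhibitors cause a drop in the FAM fluorescence signal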
UUG fidelity: alters start codon recognition fidelity in yeast; AID 602363; activity score, % at 18.7 µM; 350,000 tested, 0.13% active; S. cerevisiae UUG-firefly luciferase reporter, luminescence/redox ratio;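 active means replicate mean at a twofold rise or more, about +100% in these data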;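 further: firefly luciferase made from a UUG start codon reports start codon fidelity; reporter light over untreated wells divided by growth signal over untreated wells; some hits fall short of that in this replicate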
MLL AF4-AF9 inh: inhibitors of human MLL-AF4/AF9 interaction | P42568 | AlphaScreen, biotin-AF4 peptide binding to FLAG-AF9 | inhibition, % at 10 µM | 350,000 tested, 0.47% active;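 active = every replicate reaching a set inhibition limit, whatever the replicate mean, cut at about 25% in these data; inconclusive = mean inhibition reaches that limit but some replicates miss it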
SIRT5 inh: blocks human SIRT5 desuccinylation of peptide | Purified SirT5, succinyl-peptide AMC, trypsin-coupled fluorescence | inhibition, % at 15 µM | 330,000 tested, 1.1% active | AID 652115; in the data active = inhibition above about 15%; inconclusive = no clear call, values can overlap the other calls
Numbers stand for hits; – = inactive; ? = inconclusive; · = no result; ! = not confirmed by another sample.

SMILES	RAD52 inh	E-sel inducer	RAD54 inh	UUG fidelity	MLL AF4-AF9 inh	SIRT5 inh
COc1ccc(S(=O)(=O)Nc2ccc3c(c2)C(=O)N([C@H](C)CO)C[C@@H](C)[C@H](CN(C)S(=O)(=O)c2ccc(F)cc2)OCCCC[C@H](C)O3)cc1	–	–	–	–	–	–
COc1ccc(S(=O)(=O)N(C)C[C@@H]2OCCCC[C@@H](C)Oc3ccc(NS(=O)(=O)c4ccc(F)cc4)cc3C(=O)N([C@@H](C)CO)C[C@H]2C)cc1	–	–	–	–	–	21
O=C1Nc2ccccc2-c2nnnn2C1N1CCCC1 (stereo unspecified)	–	–	·	·	·	18
Cc1cc2c(cc1C)-n1nnnc1C(N1CCCC1)C(=O)N2 (stereo unspecified)	–	–	·	·	–	–
COc1ccccc1S(=O)(=O)N1C[C@H](O)COC[C@H]2O[C@@H](CC(=O)O)CC[C@@H]21	–	–	–	–	–	–
COc1ccc2c3c(n(C)c2c1)[C@H](CO)N(C(=O)Cc1ccccc1)CC31CN(C(=O)Cc2ccccc2)C1	–	–	·	·	–	–
COC(=O)c1cc(C(=O)OC)[nH]n1	–	·	·	·	–	16
O=S(=O)(O)c1cc(O)c(N=Nc2ccc(O)cc2O)c2ccccc12	–	65	–	–	34	31
O=[N+]([O-])c1ccccc1N=Nc1ccc(O)cc1O	–	–	–	–	–	·
Cc1noc(C)c1S(=O)(=O)Nc1ccc2c(c1)C(=O)N([C@@H](C)CO)C[C@@H](C)[C@@H](CN(C)S(=O)(=O)c1ccc(F)cc1)O2	–	–	·	·	–	–
Cc1nc(S/C(=C/c2ccc(-c3ccc(C(=O)O)cc3)o2)C(=O)O)n[nH]1	–	–	–	–	–	37
CC(=O)NC1C(=O)N(CCN2CCOCC2)c2ccc(F)cc21 (stereo unspecified)	–	53	·	·	–	–
COc1ccccc1NC(=O)N1CC(=O)N2[C@H](CO)[C@@H](c3ccc(-c4ccccc4)cc3)[C@H]2C1	–	–	·	·	–	–
C[C@H](CO)N1C[C@H](C)[C@@H](CN(C)Cc2ccc(-c3ccccc3)cc2)Oc2c(NC(=O)Nc3cccc4ccccc34)cccc2C1=O	·	90	·	–	·	·
C[C@H](CO)N1C[C@H](C)[C@@H](CN(C)Cc2ccc(C(F)(F)F)cc2)Oc2c(NC(=O)C3CCCCC3)cccc2C1=O	–	?	–	–	–	17
C[C@@H]1CN([C@@H](C)CO)C(=O)c2cccc(NC(=O)C3CCCCC3)c2O[C@H]1CN(C)Cc1ccc(C(F)(F)F)cc1	–	–	–	–	–	–
C[C@H](CO)N1C[C@H](C)[C@@H](CN(C)Cc2ccccc2)Oc2c(NC(=O)C3CCCCC3)cccc2C1=O	–	–	–	–	–	18!
CC(C)NC(=O)Nc1cccc2c1O[C@@H](CN(C)Cc1ccc(Cl)c(Cl)c1)[C@@H](C)CN([C@H](C)CO)C2=O	–	44	–	·	–	–
CC(C)NC(=O)Nc1cccc2c1O[C@@H](CN(C)Cc1ccc(C(F)(F)F)cc1)[C@H](C)CN([C@H](C)CO)C2=O	–	29	–	–	–	–
Nc1nc(NCC2CCCO2)nc(Nc2ccccc2)c1[N+](=O)[O-] (stereo unspecified)	–	–	–	–	–	–
Nc1nc(NCC2CCCO2)nc(Nc2cccc(F)c2)c1[N+](=O)[O-] (stereo unspecified)	–	–	·	·	31	–
CC1CCCCN1Cc1c(O)ccc2c(=O)c(-c3ccc(Cl)cc3)coc12 (stereo unspecified)	–	·	–	–	–	–
CC1CCCCN1Cc1c(O)ccc2c(=O)c(-c3ccc(Br)cc3)coc12 (stereo unspecified)	–	40	–	–	–	–
C[C@@H]1CN([C@@H](C)CO)C(=O)c2cccc(NC(=O)c3nc4ccccc4s3)c2O[C@H]1CN(C)Cc1ccccc1	·	–	·	·	·	·
C[C@H](CO)N1C[C@H](C)[C@@H](CN(C)Cc2ccc(C(F)(F)F)cc2)Oc2c(NC(=O)c3nc4ccccc4s3)cccc2C1=O	–	–	–	–	–	16
SMILES	RAD52 inh	E-sel inducer	RAD54 inh	UUG fidelity	MLL AF4-AF9 inh	SIRT5 inh
C[C@H]1CN([C@@H](C)CO)C(=O)c2cccc(NC(=O)c3nc4ccccc4s3)c2O[C@@H]1CN(C)Cc1ccc(C(F)(F)F)cc1	–	48	–	–	–	21
C[C@@H]1CN([C@H](C)CO)C(=O)c2cccc(NC(=O)c3nc4ccccc4s3)c2O[C@@H]1CN(C)Cc1ccccc1	–	–	–	–	–	–
C[C@@H]1CN([C@@H](C)CO)C(=O)c2cccc(NC(=O)c3nc4ccccc4s3)c2O[C@H]1CN(C)Cc1ccc(C(F)(F)F)cc1	–	–	–	–	–	22
C[C@@H]1CN([C@H](C)CO)C(=O)c2cccc(NC(=O)c3nc4ccccc4s3)c2O[C@@H]1CN(C)Cc1ccc(C(F)(F)F)cc1	–	–	–	–	–	25
C[C@H]1CN([C@@H](C)CO)C(=O)c2cccc(NC(=O)c3nc4ccccc4s3)c2O[C@@H]1CN(C)Cc1ccccc1	–	–	–	–	–	–
COc1ccc(S(=O)(=O)Nc2ccc3c(c2)C(=O)N([C@@H](C)CO)C[C@@H](C)[C@@H](CN(C)C(=O)CCC(F)(F)F)OCCCC[C@H](C)O3)cc1	–	–	–	–	–	–
O=C(c1ccccc1)N1CC(=O)N2[C@H](CO)[C@H](c3ccc(C4=CCCC4)cc3)[C@@H]2C1	–	–	·	·	–	–
C[C@H](CO)N1C[C@H](C)[C@H](CN(C)Cc2ccc(C(F)(F)F)cc2)Oc2c(NC(=O)c3nc4ccccc4s3)cccc2C1=O	–	–	–	–	–	28
Cc1ccc(OCc2nc(-c3ccccn3)no2)c(Br)c1	·	·	–	–	·	·
Cc1ccc(OCc2nc(-c3cccnc3)no2)cc1C	–	424	–	–	–	–
Cc1ccc(OCc2nc(-c3ccccn3)no2)cc1	–	·	–	–	–	16
c1ccc(CCc2nc(-c3ccc(-n4cccc4)cc3)no2)cc1	–	–	–	–	–	18
Cc1ccc(OCc2nc(-c3ccc(-n4cccc4)cc3)no2)cc1C	–	–	–	–	38	–
C[C@H](CO)N1C[C@H](C)[C@H](CN(C)Cc2ccc(C(=O)O)cc2)Oc2c(NS(=O)(=O)c3ccc(F)cc3)cccc2C1=O	–	–	–	–	–	–
C[C@@H]1CN([C@H](C)CO)C(=O)c2cccc(NS(=O)(=O)c3ccc(F)cc3)c2O[C@H]1CN(C)CC1CCCCC1	–	–	–	–	–	–
C[C@H](CO)N1C[C@H](C)[C@@H](CN(C)CC2CCCCC2)Oc2c(NS(=O)(=O)c3ccc(F)cc3)cccc2C1=O	–	–	–	–	–	27!
C[C@H]1CN([C@@H](C)CO)C(=O)c2cccc(NS(=O)(=O)c3ccc(F)cc3)c2O[C@H]1CN(C)S(=O)(=O)c1cccs1	–	235	–	–	–	–
